Earlier results on one compound are cited in US20220062190A1, “Therapeutic Agent and Nutraceutical Compositions And Methods for Making and Using Same” (NUREVELATION, LLC, priority 2020, published 2022).

The conditions of the data set: cited from earlier work.

As for `Cc1cc2c(s1)Nc1ccccc1N=C2N1CCN(C)CC1` [Olanzapine], the LogP was 4.09.
